The values that follow come from patent US8263590B2, “Pyrimidine derivatives” (priority 2003, dated 2012).

In the assay the test system is Jurkat T human leukemic cell line. Nature of the assay: In vitro T cell migration assay. It is filed as cell-based. Conditions: read-out: T Cell Migration IC50.

For the molecule `CCCS(=O)(=O)c1ccccc1Nc1nc(Nc2cc(N3CCC(N4CCCCC4)CC3)ccc2OC)ncc1Cl`, the IC50 turned out to be 90 nM.
